Reference: patent US8933079B2, “Pyridone and pyridazinone derivatives as anti-obesity agents” (Boehringer Ingelheim International GmbH, priority 2012, dated 2015)

By UniProt entry, the sequences of proteins in these tests, tags left out.
UniProt Q99705, whole entry: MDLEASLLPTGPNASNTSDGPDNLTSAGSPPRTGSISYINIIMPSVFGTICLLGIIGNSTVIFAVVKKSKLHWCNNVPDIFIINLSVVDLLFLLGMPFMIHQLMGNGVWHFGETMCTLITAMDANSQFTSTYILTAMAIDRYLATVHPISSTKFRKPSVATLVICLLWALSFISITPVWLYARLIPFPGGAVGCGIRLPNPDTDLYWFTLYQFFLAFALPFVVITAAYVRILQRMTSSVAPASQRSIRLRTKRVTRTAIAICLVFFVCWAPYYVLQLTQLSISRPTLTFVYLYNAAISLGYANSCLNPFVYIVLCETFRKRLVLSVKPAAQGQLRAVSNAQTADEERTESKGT

Molecular target: hMCH-1R (Homo sapiens (Human), UniProt Q99705)
Assay: MCH-1 receptor binding test (125I-MCH binding to hMCH-1R transfected cell membranes)
Settings: competition with 100 pM 125I-MCH, membranes of CHO/Galpha16 cells stably transfected with hMCH-1R

IC50 [nM]	SMILES
35	Cc1cc(CN2C[C@@H](C)O[C@@H](C)C2)ccc1C(=O)Cn1ncc(OCc2ccccc2)cc1=O
14	Cc1cc(CN2CCCC2C)ccc1C(=O)Cn1ccc(OCc2ccc(Br)cn2)cc1=O (centres unmarked)
